# Source: ChEMBL document CHEMBL5532688, “Carltonine-derived compounds for targeted butyrylcholinesterase inhibition” (RSC Med Chem, 2024)
# Test: in vitro
# Conditions: PAMPA, pH 7.4
smiles,measurement,value
CCN(C)C(=O)Oc1cccc([C@H](C)N(C)C)c1 [RIVASTIGMINE],Papp at 100 µM,20 ×10⁻⁶ cm/s
